Like-named read-outs stand apart in the source and are kept apart here.
Tests used:
bacterial isolates = settings: for Teicoplanin + MBI 26: in combination with MBI 26
[1] = tested on: inherently resistant microorganisms; settings: for Teicoplanin MIC + MBI 26: in combination with MBI 26

Teicoplanin
0.25 µg/mL: Teicoplanin + MBI 26 (bacterial isolates; E. faecalis 97040 VanB) | Teicoplanin + MBI 26 (bacterial isolates; E. faecalis 97041 VanB) | Teicoplanin + MBI 26 (bacterial isolates; E. faecalis 97042 VanB) | Teicoplanin + MBI 26 (bacterial isolates; E. faecalis 97043 VanB) | Teicoplanin + MBI 26 (bacterial isolates; E. faecium 97001 VanB) | Teicoplanin + MBI 26 (bacterial isolates; E. faecium 97002 VanB) | Teicoplanin + MBI 26 (bacterial isolates; E. faecium 97003 VanB) | Teicoplanin + MBI 26 (bacterial isolates; E. faecium 97005 VanB) | Teicoplanin + MBI 26 (bacterial isolates; E. faecium 97007 VanB) | Teicoplanin + MBI 26 (bacterial isolates; E. faecium 97008 VanB) | Teicoplanin + MBI 26 (bacterial isolates; E. faecium 97009 VanB) | Teicoplanin + MBI 26 (bacterial isolates; E. faecium 97010 VanB) | Teicoplanin + MBI 26 (bacterial isolates; E. faecium 97011 VanB) | Teicoplanin + MBI 26 (bacterial isolates; E. faecium 97012 VanB) | Teicoplanin + MBI 26 (bacterial isolates; E. faecium 97013 VanB) | Teicoplanin + MBI 26 (bacterial isolates; E. faecium 97014 VanB) | Teicoplanin + MBI 26 (bacterial isolates; E. faecium 97015 VanB) | Teicoplanin + MBI 26 (bacterial isolates; E. faecium 97016 VanB) | Teicoplanin MIC + MBI 26 ([1]; E. casseliflavus VanC strains) | Teicoplanin MIC + MBI 26 ([1]; E. gallinarum VanC strains)
8 µg/mL: Teicoplanin Alone (bacterial isolates; E. faecium 97012 VanB) | Teicoplanin Alone (bacterial isolates; E. faecium 97013 VanB) | Teicoplanin Alone (bacterial isolates; E. faecium 97014 VanB)
1 µg/mL: Teicoplanin Alone (bacterial isolates; E. faecalis 97041 VanB) | Teicoplanin Alone (bacterial isolates; E. faecalis 97042 VanB) | Teicoplanin Alone (bacterial isolates; E. faecium 97005 VanB)
0.5 µg/mL: Teicoplanin Alone (bacterial isolates; E. faecalis 97040 VanB) | Teicoplanin Alone (bacterial isolates; E. faecalis 97043 VanB) | Teicoplanin Alone (bacterial isolates; E. faecium 97001 VanB) | Teicoplanin Alone (bacterial isolates; E. faecium 97002 VanB) | Teicoplanin Alone (bacterial isolates; E. faecium 97003 VanB) | Teicoplanin Alone (bacterial isolates; E. faecium 97006 VanB) | Teicoplanin + MBI 26 (bacterial isolates; E. faecium 97006 VanB) | Teicoplanin Alone (bacterial isolates; E. faecium 97007 VanB) | Teicoplanin Alone (bacterial isolates; E. faecium 97008 VanB) | Teicoplanin Alone (bacterial isolates; E. faecium 97009 VanB) | Teicoplanin Alone (bacterial isolates; E. faecium 97010 VanB) | Teicoplanin Alone (bacterial isolates; E. faecium 97011 VanB) | Teicoplanin Alone (bacterial isolates; E. faecium 97015 VanB) | Teicoplanin Alone (bacterial isolates; E. faecium 97016 VanB) | Teicoplanin MIC Alone ([1]; E. casseliflavus VanC strains)
